Consider 1 compound from patent US20150337056A1, “Method for Immediately Terminating Radical Polymerizations, Inhibitor Solution, and Use Thereof” (Allessa GmbH, priority 2013, published 2015).

This series can be described thus: Solubility and low-temperature stability of inhibitors in (poly)alkylene glycols. The settings on record: in poly(alkylene) glycol(s).

The structures appear in SMILES notation.

Regarding `COc1ccc(O)cc1` [MEHQ, hydroquinone monomethyl ether], the “temperature down to which stable solutions are formed” value was −25 °C.
